From patent publication US20240150368A1, “ULK INHIBITORS AND METHODS OF USE THEREOF” (Deciphera Pharmaceuticals, LLC, priority 2022, published 2024) come the findings set out here.

Sequences of proteins named here, by UniProt entry; tags and fusion partners are left off. A line that says so, or that is headed by a name, gives the form on record, which may keep a tag or linker. Residues count along the entry.
UniProt Q8IYT8, 1-306 with tags or gaps: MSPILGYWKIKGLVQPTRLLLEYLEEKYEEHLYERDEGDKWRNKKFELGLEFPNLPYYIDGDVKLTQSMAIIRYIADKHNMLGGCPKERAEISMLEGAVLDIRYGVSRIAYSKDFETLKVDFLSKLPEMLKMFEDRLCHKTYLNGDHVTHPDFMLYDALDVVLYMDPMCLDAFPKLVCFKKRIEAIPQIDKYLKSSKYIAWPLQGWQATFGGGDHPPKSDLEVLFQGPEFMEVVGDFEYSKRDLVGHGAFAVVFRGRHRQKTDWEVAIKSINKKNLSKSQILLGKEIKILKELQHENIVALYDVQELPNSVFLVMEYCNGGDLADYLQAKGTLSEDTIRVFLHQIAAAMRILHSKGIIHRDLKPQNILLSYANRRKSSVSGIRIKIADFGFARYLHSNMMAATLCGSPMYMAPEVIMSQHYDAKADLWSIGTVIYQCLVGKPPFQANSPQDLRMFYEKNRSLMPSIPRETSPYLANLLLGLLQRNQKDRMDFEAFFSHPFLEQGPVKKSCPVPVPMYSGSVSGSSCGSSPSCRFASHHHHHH
UniProt O75385, 1-283 E37A/K38A: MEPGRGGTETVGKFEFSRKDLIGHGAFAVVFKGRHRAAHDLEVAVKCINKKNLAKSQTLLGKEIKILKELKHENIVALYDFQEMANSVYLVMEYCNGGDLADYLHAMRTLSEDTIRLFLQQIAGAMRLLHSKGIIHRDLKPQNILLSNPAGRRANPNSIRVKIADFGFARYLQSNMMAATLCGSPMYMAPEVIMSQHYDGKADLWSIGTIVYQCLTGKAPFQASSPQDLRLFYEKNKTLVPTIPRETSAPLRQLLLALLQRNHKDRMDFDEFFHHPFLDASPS

A word on the IC50: it is the concentration needed to halve the response being measured.

Bounds are passed on as bounds.

Assay [1] deals with ULK kinase substrate ATG13 (pS318-ATG13) in HCT-116 cells. In words: pATG13 levels of mutant KRas HCT-116 cells after treatment with ULK inhibitors in combination with trametinib (ELISA). Conditions: read-out: HCT-116 pATG13 ELISA, IC50. The procedure:
pATG13 Levels of Mutant KRas HCT-116 Cells after Treatment with ULK Inhibitors in Combination with Trametinib
(§1) HCT-116 human colon cancer cells (10000 cells/well) were added to a 384-well tissue-culture treated plate in 50 μL of pre-warmed DMEM medium supplemented with 10% characterized fetal bovine serum (Invitrogen, Carlsbad, CA), 100 units/mL penicillin G, and 100 μg/mL streptomycin and allowed to grow overnight at 37° C., 5% CO2, and 95% humidity. The following day, 10 μL of media containing trametinib or DMSO as a control was added to wells. The final concentration of trametinib in wells was 250 nM. A dose response of a test compound (0.6 μL per well) was added. DMSO (0.6 μL) was added to control wells. The plate was briefly shaken to mix wells and then incubated at 37° C. overnight. The next day, the media was aspirated and cells were washed with Dulbecco's Phosphate Buffered Saline (Gibco). […]
(§2) Cellular levels of phospho-Serine 318 ATG13 (pATG13) were measured via an ELISA method. […] The plate was analyzed at on a plate reader measuring absorbance at 450 nm and 540 nm (background). Signal was calculated by first subtracting the background absorbance at 540 nm from the absorbance at 450 nm for each well. Next, the background corrected absorbance at 450 nm from blank wells was subtracted from test wells. […]
For orientation: In an ELISA, binding on a coated surface is turned into a signal by an enzyme label.

Assay [2] deals with ULK kinase substrate ATG13 (pS318-ATG13) in A549 (KRAS mutant) cells. Briefly: pATG13 levels of mutant KRas A549 cells after treatment with ULK inhibitors in combination with trametinib (ELISA). Conditions: read-out: A549 pATG13 ELISA, IC50. As to the method: Cellular Inhibition of ULK Kinase Substrate ATG13 Protein pATG13 Levels of Mutant KRas A549 Cells after Treatment with ULK Inhibitors in Combination with Trametinib
as §1, with “A549 (KRAS mutant)” for “HCT-116”, “lung” for “colon”, “(6,000” for “(10000”
as §2

For a further assay, the target named is ULK2 kinase (Homo sapiens, UniProt Q8IYT8). In words: Biochemical assay for ULK2 (coupled pyruvate kinase/lactate dehydrogenase assay). As to conditions: read-out: ULK2 (inhibition of biochemical activity), IC50; 1 mM ATP, 1 nM ULK2. The procedure: Biochemical Assay for ULK2 (SEQ. ID NO: 2)
Activity of ULK2 kinase was determined spectroscopically using a coupled pyruvate kinase/lactate dehydrogenase assay that continuously monitors the ATP hydrolysis-dependent oxidation of NADH (e.g., Schindler et al. Science (2000) 289: 1938-1942). Assays were conducted in 384-well plates (100 μL final volume) using 1 nM ULK2 (Signal Chem U02-11G), 200 μM ULKtide, 1.5 units pyruvate kinase, 2.1 units lactate dehydrogenase, 1 mM phosphoenol pyruvate, 0.28 mM NADH and 1 mM ATP in assay buffer (100 mM Tris, pH 7.5, 15 mM MgCl2, 0.5 mM DTT, 0.1% octyl-glucoside, 0.002% (w/v) BSA, and 0.002% Triton X-100). Inhibition of ULK2 was measured by adding serial diluted test compound (final assay concentration of 1% DMSO). A decrease in absorption at 340 nm was monitored continuously for 6 h at 30° C. on a multi-mode microplate reader (BioTek). The reaction rate was calculated using the 2-3 h time frame. The reaction rate at each concentration of compound was converted to percent inhibition using controls (i.e., reaction with no test compound and reaction with a known inhibitor) and IC50 values were calculated by fitting a four-parameter sigmoidal curve to the data using Prism (GraphPad software).

The test system of assay [3] is ULK kinase substrate ATG13 (pS318-ATG13) in MiaPaCa-2 cells. In words: pATG13 levels of mutant KRas MiaPaCa-2 cells after treatment with ULK inhibitors in combination with trametinib (ELISA). As to conditions: read-out: MiaPaca-2 pATG13 ELISA, IC50. The procedure: pATG13 Levels of Mutant KRas MiaPaCa-2 Cells after Treatment with ULK Inhibitors in Combination with Trametinib
as §1, with “MiaPaCa-2” for “HCT-116”, “pancreatic” for “colon”, “G,” for “G, and”, “streptomycin, and 2.5% Horse Serum” for “streptomycin”
as §2

Assay [4] concerns ULK kinase substrate ATG13 (pS318-ATG13) in T24 cells. In words: pATG13 levels of mutant HRas T24 cells after treatment with ULK inhibitors in combination with trametinib (ELISA). Conditions: read-out: T24 pATG13 ELISA, IC50, in combination with trametinib 250 nM. The procedure:
pATG13 Levels of Mutant HRas T24 Cells after Treatment with ULK Inhibitors in Combination with Trametinib
T24 human urinary bladder cancer cells (25000 cells/well) were added to a 96-well tissue-culture treated plate in 100 μL of pre-warmed DMEM medium supplemented with 10% characterized fetal bovine serum (Invitrogen, Carlsbad, CA), 100 units/mL penicillin G, and 100 μg/mL streptomycin and allowed to grow overnight at 37° C., 5% CO2, and 95% humidity. The following day, 100 μL of media containing trametinib or DMSO as a control was added to wells. The final concentration of trametinib in wells was 250 nM. A dose response of a test compound (0.5 μL per well) was added. DMSO (0.5 μL) was added to control wells. The plate was briefly shaken to mix wells and then incubated at 37° C. overnight. The next day, the media was aspirated and cells were washed with Dulbecco's Phosphate Buffered Saline (Gibco). […]
as §2

For a further assay, the target named is ULK1 kinase (Homo sapiens, UniProt O75385, E37A/K38A). In words: Biochemical assay for ULK1 (coupled pyruvate kinase/lactate dehydrogenase assay). Conditions: read-out: ULK1 (inhibition of biochemical activity), IC50; 1 mM ATP, 0.1 nM ULK1. As to the method: Biochemical Assay for ULK1 (SEQ. ID NO: 1)
Activity of ULK1 kinase was determined spectroscopically using a coupled pyruvate kinase/lactate dehydrogenase assay that continuously monitors the ATP hydrolysis-dependent oxidation of NADH (e.g., Schindler et al. Science (2000) 289: 1938-1942). Assays were conducted in 384-well plates (100 μL final volume) using 0.1 nM ULK1 (from Beryllium), 0.075 mM peptide substrate (YANWLAASIYLDGKKK), 1.5 units pyruvate kinase, 2.1 units lactate dehydrogenase, 1 mM phosphoenol pyruvate, 0.28 mM NADH and 1 mM ATP in assay buffer (100 mM Tris, pH 7.5, 15 mM MgCl2, 0.5 mM DTT, 0.004% (w/v) BSA, and 0.004% Triton X-100). Inhibition of ULK1 was measured by adding serial diluted test compound (final assay concentration of 1% DMSO). A decrease in absorption at 340 nm was monitored continuously for 6 h at 30° C. on a multi-mode microplate reader (BioTek). The reaction rate was calculated using the 2-3 h time frame. The reaction rate at each concentration of compound was converted to percent inhibition using controls (i.e., reaction with no test compound and reaction with a known inhibitor) and IC50 values were calculated using software routines in Prism (GraphPad software).

Turning to `CC/C(Nc1ccc(N2CCN(C)CC2)cc1)=C1/C(=O)Nc2ccc(C(=O)NCC(F)(F)F)cc21`, the half-maximal inhibitory concentration (IC50) in assay [1] was under 100 nM; in assay [2], under 100 nM; on ULK2 kinase, 10 to 100 nM; in assay [3] it was under 100 nM; in assay [4] it was under 100 nM; on ULK1 kinase, 10 to 100 nM.
